The entries are a selection whose mix differs from that of the whole data set. Some salts and complexes are drawn in separate pieces, as the source files them; their charges need not balance. Activity calls are given as the source filed them.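 Rule for the calls: active = potentiation over 3 SD above the plate norm (cut at about 30% in these data); inactive = the rest.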

Amino acid sequences for entries named in this document (tags omitted).
UniProt P14416, whole entry: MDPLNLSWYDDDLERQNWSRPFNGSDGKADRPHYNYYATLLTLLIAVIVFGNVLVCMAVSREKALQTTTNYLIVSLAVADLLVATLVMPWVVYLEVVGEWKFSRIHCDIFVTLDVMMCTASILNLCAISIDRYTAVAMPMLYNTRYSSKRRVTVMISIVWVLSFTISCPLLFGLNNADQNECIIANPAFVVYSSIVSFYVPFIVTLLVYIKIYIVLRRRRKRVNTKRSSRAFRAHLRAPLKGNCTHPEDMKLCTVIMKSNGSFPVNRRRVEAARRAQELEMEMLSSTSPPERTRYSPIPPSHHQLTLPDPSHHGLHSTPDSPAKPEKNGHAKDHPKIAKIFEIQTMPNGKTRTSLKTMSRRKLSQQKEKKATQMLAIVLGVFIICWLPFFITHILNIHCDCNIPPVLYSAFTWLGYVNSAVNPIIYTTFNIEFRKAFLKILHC

The target in this assay is D(2) dopamine receptor (Homo sapiens) (UniProt P14416). Kind of assay: HTS Assay for Positive Allosteric Modulators of the Human D2 Dopamine Receptor: Primary Screen for Potentiators. Note: 0% is about no effect. Particulars: HEK293 T-REx D2, calcium flux, EC20 dopamine potentiation; at 10 µM; hits give high values. An excerpt:
NIH Chemical Genomics Center [NCGC] NIH Molecular Libraries Probe Centers Network [MLPCN] MLPCN Grant: NS064831-01 Assay Submitter (PI): David Sibley Dopamine receptors (DARs) are involved in the etiology and/or therapy of a number of neuropsychiatric and endocrine disorders. For instance, all receptor-based antiparkinsonian drugs work via stimulating the D2 DAR subtype whereas all FDA-approved antipsychotic agents are antagonists of this receptor. […] There are three different types of allosteric modulators that we are seeking, two of which will stimulate or augment receptor signaling, allosteric agonists and potentiators, while the third, allosteric antagonists, will attenuate receptor signaling. The present primary screening assay measures compound potentiation of an EC20 dopamine response by tracking calcium flux in a […], inducible Hek293 Trex D2 cell line.
Freshly passaged cells are plated in 1536 well black, clear bottom plates at a density of 4000 cells/well in 3 ul of complete media containing 1x tetracycline inducer. After an overnight incubation at 30 C in 5% CO2, cells are loaded with 2 ul of the no wash Calcium Assay Kit (ABD Bioquest) and incubated at room temperature for 30 to 90 minutes. A 10 cycle (1 second/cycle) baseline measurement is taken and then the FDSS online 1536 pintool delivers 23 nl of compound library (as well as dopamine controls) to the plate. The plate is measured for kinetically at 1 cycle/sec for 180 seconds and is considered to be the agonist portion of the assay (eg, compounds which activate a positive calcium response during this portion are flagged as potential agonists). Following the 180 second read, 1 ul of an EC20 of dopamine is delivered by an onboard pipette head. Measurements are taken kinetically for an additional 180 seconds.
With `c1ccc(CN2CCC(Nc3ccccc3)CC2)cc1`, the potentiation was inactive: -26.1%.
Next, `CN(C)C1(CNC(=O)c2cccc(C#N)c2)CCCCC1`: inactive: 12.5%; `CCOC(=O)C(CC)C1=NC(C)(C)Cc2ccccc21.O=[N+]([O-])c1cc([N+](=O)[O-])c(O)c([N+](=O)[O-])c1` (configuration not stated): inactive: 2.64%; `O=C(NCC1(N2CCOCC2)CCCCC1)c1ccc([N+](=O)[O-])cc1`: inactive: 5.13%.
Under `N#Cc1ccc(C(=O)NCC2(N3CCCCC3)CCCCC2)cc1` stands inactive: -3.04%; under `O=C(NCC1(N2CCOCC2)CCCCC1)c1ccccc1[N+](=O)[O-]`, inactive: 3.74%.
`CCc1cc(C(=O)NCC2(N3CCCCC3)CCCCC2)sc1C`: the potentiation is inactive: -22.7%.
Consider `O=C(OC1CN2CCC1CC2)C1c2ccccc2C=Cc2ccccc21` (configuration not stated), for which the potentiation is inactive: 1.7%.
On to `O=C(O)c1cccc(Nc2c([N+](=O)[O-])cc([N+](=O)[O-])cc2[N+](=O)[O-])c1`, for which the potentiation was inactive: 4.87%.
Turning to `N/C(=N\O)c1c(N)no[n+]1[O-]`, the potentiation was inactive: -10.4%.
Turning to `CCOC(=O)N1CCC(Nc2ccc(C)cc2)CC1`, the potentiation was inactive: 13.1%.
As to `COc1ccc(C(=O)NCC2(N3CCOCC3)CCCCC2)cc1OC`, the potentiation was inactive: -4.96%.
As to `O=C(NCC1(N2CCOCC2)CCCCC1)c1cc(Br)ccc1Cl`, the potentiation is inactive: 6.39%.
Next, `CCCOc1ccc(C)cc1CN(CCCl)CCCl`: inactive: -4.06%; `CN1CCC(Nc2ccc(Cl)cc2)CC1`: inactive: -7.95%; `CCC(CO)(C(=O)OC1CN2CCC1CC2)c1ccccc1` (configuration not stated): inactive: 4.51%.
In the case of `COc1cc(OC)cc(C(=O)NCC2(N3CCOCC3)CCCCC2)c1`, the potentiation was inactive: -3.14%.
As for `COc1cc(C(=O)NCC2(N3CCOCC3)CCCCC2)cc(OC)c1OC`, the potentiation is inactive: -3.82%.
As for `COc1cccc(C(=O)N(c2cc(C)cc(C)c2)C2CCN(C(=O)OC(C)(C)C)CC2)c1`, the potentiation is inactive: 16.5%.
Under `CCCOc1ccc(C(=O)NCC2(N(C)C)CCCCC2)cc1` stands inactive: -11.5%; under `CC(C)(C)OC(=O)N1CCC(Nc2ccccc2)CC1`, inactive: -0.489%.
With `O=C(O)C1(Nc2ccccc2)CCN(Cc2ccccc2)CC1`, the potentiation was inactive: -12.6%.
Next, `CCOc1ncccc1C(=O)NCC1(N2CCOCC2)CCCCC1`: inactive: -10.5%; `CN1CCC(Nc2ccc(F)c(Cl)c2)CC1`: inactive: -9.87%.
Regarding `O=C(NCC1(N2CCCCC2)CCCCC1)c1ccco1`, the potentiation is inactive: 1.14%.
Take `CC(C)(C)c1ccc(C(=O)NCC2(N3CCOCC3)CCCCC2)cc1`: the potentiation is inactive: -20.9%.
As to `CCN1CCC(Nc2cccc(F)c2)CC1`, the potentiation is inactive: -9.39%.
As to `Cc1ccc(C(=O)NCC2(N3CCCCC3)CCCCC2)o1`, the potentiation is inactive: 10.1%.
With `Fc1ccccc1NC1CCN(Cc2ccccc2)CC1`, the potentiation was inactive: -15.4%.
Next, `COc1cc(OC)cc(C(=O)NCC2(N3CCCCC3)CCCCC2)c1`: inactive: 22.8%; `CN(C)C1(CNC(=O)c2ccc(C(C)(C)C)cc2)CCCCC1`: inactive: -23.3%.
For `CCOC(=O)N1CCC(Nc2cccc(C)c2)CC1`, the potentiation was inactive: -9.51%.
For the compound `COc1cc(C(=O)NCC2(N(C)C)CCCCC2)ccc1OC(F)F`, the potentiation is inactive: -26.4%.
Turning to `Cc1ccc(OCC(C)C)c(CN(CCCl)CCCl)c1`, the potentiation was inactive: -10.5%.
For the compound `COc1ccc(NC2CCN(CCc3ccccc3)CC2)c(OC)c1`, the potentiation is inactive: -29.8%.
With `CCOC(=O)N1CCC(Nc2ccc(F)cc2)CC1`, the potentiation was inactive: 4.97%.
Next, `COc1ccccc1C(=O)NCC1(N2CCOCC2)CCCCC1`: inactive: -7.8%; `CCOc1ccc(C)cc1CN(CCCl)CCCl`: inactive: -9.42%; `O=C(NCC1(N2CCOCC2)CCCCC1)c1ccc(Cl)cc1`: inactive: 9.12%.
Under `CCOC(=O)N1CCC(Nc2ccc(OC)cc2)CC1` stands inactive: -3.91%; under `O=C(NCC1(N2CCCCC2)CCCCC1)c1ccc(Cl)s1`, inactive: -15.9%; under `N#CC1(Nc2ccccc2)CCN(Cc2ccccc2)CC1`, inactive: -0.171%.
Under `O=C(OC1CN2CCC1CC2)C1c2ccccc2Oc2ccccc21` (configuration not stated) stands inactive: 17.2%; under `COc1ccc(Cl)cc1C(=O)NCC1(N2CCOCC2)CCCCC1`, inactive: 5.72%; under `O=C(NCC1(N2CCOCC2)CCCCC1)c1cc2ccccc2o1`, inactive: 22.9%.
Consider `O=C(NCC1(N2CCCCC2)CCCCC1)c1ccc(Cl)nc1`, for which the potentiation is inactive: -10.3%.
Turning to `Cc1cc(C)cc(N(C(=O)c2ccccc2)C2CCN(C(=O)OC(C)(C)C)CC2)c1`, the potentiation is inactive: 1.7%.
Consider `O=C(NCC1(N2CCCCC2)CCCCC1)c1ccc(=O)[nH]c1`, for which the potentiation is inactive: 0.152%.
Take `O=C(NCC1(N2CCCCC2)CCCCC1)c1cccs1`: the potentiation was inactive: 9.43%.
Consider `COc1ccc(C(=O)NCC2(N3CCCCC3)CCCCC2)cc1`, for which the potentiation is inactive: 19.8%.
Next, `CC(C)(C)OC(=O)N1CCC(N(C(=O)c2ccccc2)c2ccc(F)cc2)CC1`: inactive: -4.57%; `COc1ccc(C(=O)NCC2(N3CCCCC3)CCCCC2)c(OC)c1OC`: inactive: 8.52%; `CCCCOc1ccccc1C(=O)NCC1(N2CCOCC2)CCCCC1`: inactive: -25.9%.
`O=C(NCC1(N2CCOCC2)CCCCC1)c1ccccc1Br`: the potentiation was inactive: 3.49%.
For the compound `CCCOc1ccc(C(=O)NCC2(N(C)C)CCCCC2)cc1OC`, the potentiation is inactive: -7.45%.
With `COc1ccc2c(c1O)-c1c(O)c(OC)cc3c1[C@H](C2)[N+](C)(C)CC3.O=[N+]([O-])c1cc([N+](=O)[O-])c([O-])c([N+](=O)[O-])c1[O-]`, the potentiation was inactive: -4.96%.
Turning to `O=C(NCC1(N2CCCCC2)CCCCC1)c1cncc(Br)c1`, the potentiation was inactive: -9.2%.
Under `O=C(OC1CN2CCC1CC2)c1ccc([N+](=O)[O-])cc1` (configuration not stated) stands inactive: -9.01%; under `COc1cc(OC)c(C(=O)NCC2(N(C)C)CCCCC2)cc1OC`, inactive: -4.82%; under `COc1ccc(CN(CCCl)CCCl)cc1Cl`, inactive: 12.3%.
Turning to `O=[N+]([O-])c1cc([N+](=O)[O-])c(OC2CCCCC2O)c([N+](=O)[O-])c1` (configuration not stated), the potentiation was inactive: -1.46%.
Consider `CN(C)c1cccc(C(=O)NCC2(N3CCCCC3)CCCCC2)c1`, for which the potentiation is inactive: -19.6%.
For the compound `CC(C)c1ccc(NC2CCN(C(=O)OC(C)(C)C)CC2)cc1`, the potentiation is inactive: 12.8%.
For `CN1CCN(CCOC(=O)C(O)(c2ccccc2)c2ccccc2)CC1`, the potentiation was inactive: -1.69%.
Take `CC(C)c1ccc(C(=O)NCC2(N3CCOCC3)CCCCC2)cc1`: the potentiation is inactive: -2.07%.
Under `COc1ccc(NC2CCN(C(=O)OC(C)(C)C)CC2)cc1` stands inactive: -0.342%; under `COc1cc(C(=O)NCC2(N3CCCCC3)CCCCC2)ccc1OC(F)F`, inactive: -24.9%; under `O=C(NCC1(N2CCOCC2)CCCCC1)c1cc(=O)[nH]c2ccccc12`, inactive: 5.91%.
With `CCCOc1cccc(C(=O)NCC2(N3CCOCC3)CCCCC2)c1`, the potentiation was inactive: -21.5%.
Under `O=C(NCC1(N2CCCCC2)CCCCC1)c1cccc(C(F)(F)F)c1` stands inactive: -6.43%; under `O=[N+]([O-])c1cc([N+](=O)[O-])c(NCC2CCS(=O)(=O)C2)c([N+](=O)[O-])c1` (configuration not stated), inactive: 3.97%.
With `CCOc1ccc(C(=O)NCC2(N3CCOCC3)CCCCC2)cc1`, the potentiation was inactive: 7.8%.
In the case of `O=C(NCC1(N2CCCCC2)CCCCC1)c1cccc([N+](=O)[O-])c1`, the potentiation is inactive: 7.48%.
Consider `CSc1ccc(C(=O)NCC2(N3CCOCC3)CCCCC2)cc1`, for which the potentiation was inactive: -9.76%.
On to `CCN1CCC(Nc2ccc(Cl)cc2)CC1`, for which the potentiation is inactive: 6.62%.
As for `N#CC1(Nc2ccccc2)CCN(CCc2ccccc2)CC1`, the potentiation was inactive: -5.74%.
As for `O=C(NCC1(N2CCCCC2)CCCCC1)c1ccc(OC(F)F)cc1`, the potentiation is inactive: -5.47%.

Source of the values: PubChem BioAssay AID485347 (National Center for Advancing Translational Sciences (NCATS), 2010).
